Earlier results in PMC12524297 (International Journal of Molecular Sciences, 2025).

Settings: training dataset label; ref List of Hazardous Chemicals (2015 edition); cited from earlier work

## CN(C)P(=O)(N(C)C)n1nc(-c2ccccc2)nc1N
  haz: 1
